Assay results as given in patent publication US11713331B2, “Benzene 1,4-bis(bisphosphonic acid)-based metal complexes, method of synthesis and applications thereof” (priority 2020, dated 2023).

Key:
[1] = Dissolution profile in fasted-state simulated gastric fluid (release of BBPA); type: physicochemical; details: FaSSGF pH 1.60, 37° C.
[2] = Dissolution profile in phosphate-buffered saline (release of BBPA); type: physicochemical; details: PBS pH 7.40, 37° C.
[3] = test system: normal osteoblast-like hFOB 1.19 cell line
Method: (§1) Cell Culture Methods. Media with DMEM, 5% FBS, and 1% Pen-Strep were used to incubate MDA-MB-231 cells at 37° C. with 5% CO2. The osteoblast hFOB 1.19 cell line was incubated at 34° C., 5% CO2, in 1:1 DMEM:F-12 supplemented with 0.3 mg/mL G418, and 10% FBS. Cell passages were performed weekly at 80.0% confluency. Media exchanges were carried out twice every 7 d.
(§2) Cell treatment. […] Cells (MDA-MB-231, hFOB 1.19) were seeded in 96 well plates at a density of 2.5×10^5 cells/mL. The 96 well plates were incubated at 37° C. with 5% CO2 for 24 h. Three 96 well plates were prepared per time point (24, 48, and 72 h). […] Cells were incubated at 37° C. and 5% CO2 for 24, 48, and 72 h. Control groups were treated with media (MDA-MB-231 with DMEM, 1% Pen-Strep) and (hFOB 1.19 with 1:1 DMEM:F-12, 0.3 mg/mL G418). Cell proliferation was determined after each point time of treatment. A 10% AlamarBlue® solution was previously prepared using PBS. The media was removed from all 96 well plates and 100 μL of AlamarBlue® solution was added. The 96 well plates were incubated for 4 h (MDA-MB-231 at 37° C., 5% CO2) and (hFOB 1.19 at 34° C., 5% CO2). The fluorescence was measured at 560 nm of excitation and lambda max 590 nm of emission. […] The experiments for the % RCL were performed employing the same conditions previously mentioned for the IC50 determination. All experiments were accomplished in triplicate. The GraphPad Prism 8 vs 8.3.1 was utilized to generate the IC50 curves and to plot the % RCL graphs.
(§3) Furthermore, the cytotoxicity of these materials was also achieved using the osteoblast-like hFOB 1.19 cell line, within work, these immortalized human cells were used to simulate the human bone microenvironment (not cancerous cells). […] Control groups were treated with media (DMEM, 1% Pen-Strep, MDA-MB-231) and (1:1 DMEM:F12, 0.3 mg/mL G418, hFOB 1.19), respectively. AlamarBlue® assay was employed to determine cell proliferation after each time point.
as §1, with “Methods—Media” for “Methods. Media”, “CO2” for “CO2,”
(§4) Cell seeding—Both cells were seeded in 96 well plates at a density of 2.5×10^5 cells/mL. The 96 well plates were incubated at 37° C. (MDA-MB-231) and 34° C. […] Experiments were performed in triplicate.
(§5) (MDA-MB-231) and 34° C. […] All experiments were accomplished in triplicate.

[4] = test system: human breast cancer MDA-MB-231 cell line
Method: as §1, §2, §3
as §1, with “Methods—Media” for “Methods. Media”, “CO2” for “CO2,”
as §4, §5

[5] = Binding assay to hydroxyapatite (HA); details: 0.5 mg/mL, 20 mg HA, PBS
Method: Hydroxyapatite (HA) treatment. […] The experiment was carried out for 0-12 days, in stirring at 120 rpm. […] The supernatant was centrifuged for 8 min (500 rcf) and the absorbance was measured at 231 nm. Solid samples were characterized by SEM-EDS, TGA, and PXRD.
A suspension of HA in PBS and a solution of BBPA in PBS (without HA) were employed as control groups. […] The binding curves of these materials were contrasted with the one before reported for Alendronic acid (ALEN).
The experiment was carried out for 0-12 days, in constant stirring at 120 rpm. […] The supernatant was centrifuged for 8 min (500 rcf) and the absorbance was measured at 231 nm. Solid samples were characterized by SEM-EDS and PXRD.

[6] = 150 rpm, 0 h (aliquot before addition)

benzene 1,4-bis(bisphosphonic acid) [BBPA]
% Released (BBPA) [1, 6]: 0%
% Released (BBPA) ([1]; 0.25 h): 86%
% Released (BBPA) ([1]; 0.5 h): 87%
% Released (BBPA) ([1]; 1 h): 88.6%
% Released (BBPA) ([1]; 3 h): 93%
% Released (BBPA) ([1]; 5 h): 100% and 94%
% Released (BBPA) ([1]; 24 h): 98%
% Released (BBPA) ([1]; 48 h): 98%
% Released (BBPA) [2, 6]: 0%
% Released (BBPA) ([2]; 0.25 h): 95%
% Released (BBPA) ([2]; 0.5 h): 95%
% Released (BBPA) ([2]; 1 h): 96%
% Released (BBPA) ([2]; 3 h): 98%
% Released (BBPA) ([2]; 5 h): 100% and 98%
% Released (BBPA) ([2]; 24 h): 98%
% Released (BBPA) ([2]; 48 h): 100%
% Released (BBPA) ([2]; 72 h): 100%
cytotoxicity (in words) ([3]; hFOB 1.19, 0-200 μM): no cytotoxic; also recorded: No cytotoxicity effect was observed
relative cell live (% RCL) ([3]; hFOB 1.19, 0-200 μM, at each measured time (24, 48, 72 h)): > 90%
cytotoxicity (in words) ([3]; hFOB 1.19, 1.9-15 μM, 24-72 h): no significant cell death
cytotoxicity (in words) ([4]; MDA-MB-231, 0-200 μM): no cytotoxic; also recorded: No cytotoxicity effect was observed
relative cell live (% RCL) ([4]; MDA-MB-231, 0-200 μM, at each measured time (24, 48, 72 h)): > 90%
cytotoxicity (in words) ([4]; MDA-MB-231, 1.9-15 μM, 24-72 h): no significant cell death
% Binding to HA ([5]; 7 d): > 95% and 96%
% Binding to HA ([5]; 8 d): 97%
% Binding to HA ([5]; 9 d): 98%
% Binding to HA ([5]; 11 d): 100%
% Binding to HA ([5]; 12 d): 100%

Where “and” joins values, the source holds several entries; their conditions need not be identical. Identical values can stand only once. Entries after “also recorded” stand apart in the source; their conditions may differ. Like-named read-outs stand apart in the source and are kept apart here.
